According to US7964629B2, “Inhibitors of isoprenylcysteine carboxyl methyltransferase” (Duke Universtiy, priority 2005, dated 2011):
pIC50: −log10 of the molar value.

Sequences of proteins named here, by UniProt entry; tags and fusion partners are left off.
UniProt O60725, whole entry, looked up: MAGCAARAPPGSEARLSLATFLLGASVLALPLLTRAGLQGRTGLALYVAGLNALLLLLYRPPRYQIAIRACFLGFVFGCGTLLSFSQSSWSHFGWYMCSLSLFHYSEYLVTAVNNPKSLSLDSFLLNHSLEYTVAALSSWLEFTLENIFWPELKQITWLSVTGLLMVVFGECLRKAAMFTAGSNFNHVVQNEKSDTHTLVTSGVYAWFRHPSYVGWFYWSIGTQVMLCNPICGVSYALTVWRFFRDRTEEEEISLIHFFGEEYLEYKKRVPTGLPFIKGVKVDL

Biological target: recombinant human Icmt (Homo sapiens, UniProt O60725)
Assay: Icmt assay: [3H]methyl incorporation from [3H]AdoMet into BFC
Format: biochemical
Details: Table 2, no pre-incubation

CCCCCCn1cc(CC=O)c2cc(-c3ccccc3OC)ccc21
pIC50: < 4.52
